Assays:
[1] = Mice body weight during efficacy study; format: in vivo, NOD/SCID (nude) mice; details: i.v. once a week, 3 times; P6-SN38 10 mg/kg, Erbitux 10 mg/kg, free SN38 3 mg/kg; 18 days; N = 4
Experimental: (§1) When tumors reached~50 mm^3, mice were injected via tail vein (i.v.). To investigate the peptide accumulation in the resected tumors and organs, mice were once administered with 10 mg/kg of P6-FITC [26], while for the study of the tumor growth inhibition, mice were injected once a week (a total of 3 times) with 10 mg/kg of P6-SN38, 10 mg/kg of Erbitux, or 3 mg/kg of free SN38.
(§2) The mice’s weight and tumor volumes were measured every 2 days. The tumor sizes were measured by using the hands-on digital caliper method, and the tumor volumes were calculated according to the Formula (1). Tumor volume (mm^3) = 0.5 × Tumor Length × Tumor Width^2(1)
(§3) Figure 6 In vivo effect of P6-SN38 conjugate in NSCLC model (10 mg/kg, once a week). Effect of P6-SN38, free SN38, and Erbitux on tumor volume compared to non-treated control (A) and mice weight (B). The resected tumors are shown in (C). N = 4 in each group. * p < 0.05, ** p < 0.005, *** p < 0.001, **** p < 0.0001.

H1299 (EGFR+) tumor = experiment: In vivo tumor growth inhibition, H1299 (EGFR+) xenograft; parameters: species or system NOD/SCID (nude) mice; details: i.v. once a week, 3 times; Erbitux 10 mg/kg, free SN38 3 mg/kg; 18 days; N = 4
Experimental: Animal protocols were approved by the Institutional Animal Care and Use Committee at Ariel University. NOD/SCID (nude) mice were injected with H1299 in the right flank and K562 cells in the left flank (10^6 cells each), so that each mouse developed dual H1299 and K562 xenografts.
as §1, §2, §3

Erbitux: EGFR-specific antibody cetuximab (Erbitux)
mice weight loss, in words [1]: negligible weight loss
effect on tumor growth, in words (H1299 (EGFR+) tumor): ineffective at inhibiting tumor growth
